System: biotinylated protein
Experiment: Biolayer interferometry (BLI, Octet QK) binding of captured antibody to biotinylated protein
Details: biosensors coated with control antibody
Description: The binding properties of the recombinant chimeric and humanized anti-biotin antibody and a variant thereof, which has a cysteine at position 53 in the HVR-H2 according to the numbering of Kabat, were analyzed by biolayer interferometry (BLI) technology using an Octet QK instrument (Fortebio Inc.). This system is well established for the study of molecule interactions. BLi-technology is based on the measurement of the interference pattern of white light reflected from the surface of a biosensor tip and an internal reference. Binding of molecules to the biosensor tip is resulting in a shift of the interference pattern which can be measured. To analyze if the humanization procedure described above diminished the ability of the anti-biotin antibody to bind to biotin, the properties of the chimeric and the humanized versions of the antibody in their ability to bind to a biotinylated protein were compared directly. Binding studies were performed by capturing anti-biotin antibody on anti-huIgG Fc antibody Capture (AHC) Biosensors (Fortebio Inc.). […] Binding was measured by incubating the antibody-coated biosensors in a solution containing biotinylated protein with a concentration of 0.06 mg/ml in 20 mM histidine, 140 mM NaCl, pH 6.0 for 5 min. Dissociation was monitored for 5 min. in 1× PBS pH 7.4. […]

binding of biotin (control antibody coated on biosensors): does not bind biotin
Substance: Herceptin: control antibody coated on biosensors, which does not bind biotin
